Target: T1, OCT3 (Homo sapiens, UniProt O75751)
T1 sequence (O75751 1-556): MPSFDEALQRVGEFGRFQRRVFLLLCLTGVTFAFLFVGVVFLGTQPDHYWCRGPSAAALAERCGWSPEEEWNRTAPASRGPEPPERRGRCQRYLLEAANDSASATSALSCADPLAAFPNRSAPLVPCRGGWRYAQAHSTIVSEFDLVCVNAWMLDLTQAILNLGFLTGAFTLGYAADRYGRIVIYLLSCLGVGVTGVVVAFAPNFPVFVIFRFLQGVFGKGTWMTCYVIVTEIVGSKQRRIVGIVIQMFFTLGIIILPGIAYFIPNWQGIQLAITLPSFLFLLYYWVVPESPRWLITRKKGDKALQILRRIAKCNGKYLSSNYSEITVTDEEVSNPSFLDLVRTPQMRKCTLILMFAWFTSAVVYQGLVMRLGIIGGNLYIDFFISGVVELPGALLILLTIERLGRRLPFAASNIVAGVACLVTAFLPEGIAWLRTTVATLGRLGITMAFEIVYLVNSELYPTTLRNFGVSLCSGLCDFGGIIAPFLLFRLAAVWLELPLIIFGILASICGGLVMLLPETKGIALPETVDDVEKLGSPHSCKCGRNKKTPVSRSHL
Assay: cell-based

IC50: 10.3 µM
Compound: CN1CCN(CCOc2cc(OC3CCOCC3)c3c(Nc4c(Cl)ccc5c4OCO5)ncnc3c2)CC1 [saracatinib, N-(5-chloro-1,3-benzodioxol-4-yl)-7-[2-(4-methylpiperazin-1-yl)ethoxy]-5-(tetrahydro-2H-pyran-4-yloxy)quinazolin-4-amine]
